{"sequences": {"note": "The chains behind the UniProt entries cited, without tags or fusion partners.", "UniProt P33535, whole entry": "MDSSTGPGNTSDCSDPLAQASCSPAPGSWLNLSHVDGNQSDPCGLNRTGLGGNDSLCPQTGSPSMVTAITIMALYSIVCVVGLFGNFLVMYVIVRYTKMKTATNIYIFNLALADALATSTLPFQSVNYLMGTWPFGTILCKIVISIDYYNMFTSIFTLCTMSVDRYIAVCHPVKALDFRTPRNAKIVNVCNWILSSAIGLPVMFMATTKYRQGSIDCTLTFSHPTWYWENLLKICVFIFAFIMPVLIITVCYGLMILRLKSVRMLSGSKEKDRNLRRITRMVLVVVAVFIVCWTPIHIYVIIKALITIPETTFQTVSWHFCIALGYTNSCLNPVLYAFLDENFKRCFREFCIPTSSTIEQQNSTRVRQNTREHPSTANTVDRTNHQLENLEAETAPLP"}, "source": "ChEMBL document CHEMBL1125663", "about": "“Function of negative charge in the \"address domain\" of deltorphins” (J Med Chem, 1991)", "biological_target": "Mu-type opioid receptor (Rattus norvegicus, UniProt P33535)", "experiment": "Binding affinity against Opioid receptor mu 1 in P2 membrane preparation of rat brain by [3H]DAGO displacement.", "format": "cell membranes", "note": "pKi: −log10 of the molar value.", "data": [{"smiles": "C[C@@H](NC(=O)[C@@H](N)Cc1ccc(O)cc1)C(=O)NCC(=O)N(C)[C@@H](Cc1ccccc1)C(=O)NCCO", "note": "[DAMGO]", "values": [{"measurement": "pKi", "value": 9.18}]}]}
